According to PMC4834588 (British Journal of Clinical Pharmacology, 2016):

Experiment: Log P by HPLC retention on C18 column
Conditions: from standard curve of Log k vs known Log P
Excerpt: The method for the generation of Log P values by high performance liquid chromatography (HPLC) was adapted from that described by Zhao et al. 22. Briefly, Log P correlates with the retention time of a compound by a solid phase C18 column. […] By using compounds with known Log P values, a standard curve can be determined and the Log P of a compound of interest obtained by interpolation. A Waters HPLC system, linked to an Agilent fluorescence detector, was used along with a Luna 5 μ C18 50 × 2.0 mm HPLC column preceded by a guard column (Phenomenex, Macclesfield, UK). […] The sample holder for the HPLC was set at 25 °C in order to prevent freezing of the DMSO during the run. The mobile phase consisted of deionized water and acetonitrile with a constant gradient of 40–60%, respectively.
Prior to each run the column was equilibrated to the running conditions for 10 minutes, with the flow rate set to 0.5 ml min^−1. A 20‐μl aliquot of each sample was injected into the column and its retention time measured relative to that of the sodium nitrate peak. Peaks were analysed using Empower software (Waters, Wilmslow, UK).

Oc1ccccc1 [Phenol]
Experimental Log P: 1.49
